US7303740B2, “Methods for the diagnosis and treatment of breast cancer” (Albert Einstein College of Medicine of Yeshiva University, priority 2000, dated 2007)

Molecular target: T1, mgNIS (Mus musculus, UniProt Q99PN0)
T1 sequence (Q99PN0 1-618): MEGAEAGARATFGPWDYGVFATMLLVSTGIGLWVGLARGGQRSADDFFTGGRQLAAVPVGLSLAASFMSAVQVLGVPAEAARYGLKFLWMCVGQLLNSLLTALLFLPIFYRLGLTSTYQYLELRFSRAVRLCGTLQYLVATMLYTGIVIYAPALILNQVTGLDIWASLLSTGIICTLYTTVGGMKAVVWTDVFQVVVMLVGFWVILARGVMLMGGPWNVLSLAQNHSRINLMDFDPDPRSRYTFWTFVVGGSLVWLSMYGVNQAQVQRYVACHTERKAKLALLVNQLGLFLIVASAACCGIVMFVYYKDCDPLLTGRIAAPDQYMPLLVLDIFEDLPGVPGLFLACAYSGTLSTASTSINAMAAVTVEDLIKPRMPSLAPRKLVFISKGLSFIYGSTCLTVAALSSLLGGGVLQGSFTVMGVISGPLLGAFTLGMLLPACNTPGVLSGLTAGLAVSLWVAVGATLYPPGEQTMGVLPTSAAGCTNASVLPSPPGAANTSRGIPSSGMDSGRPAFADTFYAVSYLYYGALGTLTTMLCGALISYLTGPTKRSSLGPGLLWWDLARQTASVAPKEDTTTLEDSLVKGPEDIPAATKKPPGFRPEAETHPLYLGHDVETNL
Set-up: Membrane fractions isolated from MG of nubile female mice; from tissue; host or cells: CD1 (ICR) mice (intact, ovariectomized, gestating) and MMTV-ras / MMTV-neu transgenic mice: mammary gland, mammary adenocarcinoma, stomach; species or system mice
Settings: in vivo
Experimental: FIG. 5. Analysis of mammary adenocarcinomas in MMTV-ras and MMTV-neu transgenic mice. (A) Photograph of MMTV-ras transgenic mouse with a mammary adenocarcinoma. Transgenic mice were anaesthetized with intramuscular sodium pentobarbital injections. Then, ^99mTcO4^− (B, G), ^99mTc-labeled human serum albumin (^99mTc-HSA) (C), or ^99mTcO4^−+perchlorate (D, H) was administered by tail vein injections. (E) Dynamic curves of percent injected dose per pixel were calculated by drawing regions of interest around tumoral tissue and the mediastinum, and dividing the counts per pixel (average counts) within each region of interest by the initial whole-body count value, thereby yielding a percent injected dose per pixel. (F) Immunoblot analysis of membrane fractions isolated from MMTV-ras tumor with anti-NIS Ab. (I) Immunoblot analysis of membrane fractions isolated from MMTV-neu tumors with anti-NIS Ab. In an MMTV-neu mouse with two adjacent mammary glands containing tumors, each tumor is indicated with an arrow and numbered. […]
To assess whether specific active I^− uptake (a result of mgNIS expression) occurred in the mammary tumoral cells, transgenic animals were imaged in vivo with either ^131I^− or ^99mTcO4^−. […] Quantification of the accumulation of the various tracers in the tumor, as a function of time, is also shown for the ras mouse.

## ^99mTc-HSA: ^99mTc-labeled human serum albumin, a vascular space marker
  tracer accumulation in mammary tumor: lack of accumulation
